From ChEMBL document CHEMBL5346958 (J Med Chem, 2023)

Species on record: Homo sapiens
Test: Selectivity ratio of IC50 for AKR1C2 (unknown origin) to IC50 for AKR1C3 (unknown origin)

SMILES	Ratio IC50
Cc1ccc(CNC(=O)c2cc(/C=C/C(=O)O)cc(-c3ccc(Br)cc3)c2)cc1	277
Cc1ccc(CNC(=O)c2cc(/C=C/C(=O)O)cc(-c3ccc4c(c3)OCO4)c2)cc1	327
